Assay outcomes as filed in PubChem.
A549 viability = A549 cytotoxicity, counter-screen for Nrf2 inhibitors; hit rate 0.16% among 390,000; AID 504648; Potency, µM (highest dose often 46 µM), actives largely listed as inhibitors; A549 ARE-Fluc cells, CellTiter-Fluor viability, 18-24 h
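A549 ARE-Fluc cells in 5% FBS OPTI-MEM, 5000 cells/well, rested 2 h then exposed to compounds in concentration-response for 18-24 h at 37 °C. Viability by CellTiter-Fluor fluorescence (Ex 405/Em 525) after 30 min; luciferase luminescence (BugLite, 15 min, RT) read afterwards.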
Nrf2 block = Nrf2 pathway inhibition. hit rate 2.1% among 360,000. Potency, µM (titrated, usually from 46 µM), usual class: inhibitors. A549 ARE-Fluc reporter, luciferase luminescence, 18-24 h; also: nearly all actives have a fitted effect of over 60% in size
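Nrf2 activity is the BugLite luminescence, read 15 min after reagent at room temperature, following CellTiter-Fluor cytotoxicity readout (30 min, 37C). Compound titrations were applied for 18-24 h to 5000 A549 ARE_Fluc cells/well in 5% FBS OPTI-MEM.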
GRP78 ERSR act = induces the endoplasmic reticulum stress response in human glioma cells; U87-MG GRP78 promoter luciferase reporter, 16 h; Potency, µM, usual class: activators; hit rate 0.02% among 420,000; AID 602332; also: series mostly up to about 76 µM; nearly all actives have a fitted effect of over 35% in size
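Stably transfected U87-MG glioma cells carrying a GRP78-based luciferase sensor; 16 h compound incubation. Luminescence end-point read 10 min after Bright-Glo addition at room temperature.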
miR-21 reporter = raises the signal of a miR-21 reporter; HeLa miR-21 FLuc reporter, luciferase, 48 h; Potency, µM (top dose mostly 38.3 µM); AID 2288; 340,000 tested, under 10 active; active = well fitted rising curve with a large enough effect; inconclusive = small, poorly fitted or top-dose-only effect; inactive = no such curve, though single readings can be large or run the other way;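 note: miR-21 action dims this reporter so a rising signal means less miR-21 action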
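Luminescence from a firefly luciferase reporter carrying a miR-21 binding site downstream, stably expressed under a CMV promoter in HeLa cells that make miR-21 endogenously, reports miRNA modulation after 48 h compound exposure up to approximately 40uM final.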
Mito fusion act = inhibitors of mitochondrial division or activators of mitochondrial fusion. S. cerevisiae fusion-defective mutant growth rescue, CellTiterGlo 48 h. Potency, µM (series often up to 46.1 µM), actives largely listed as activators. hit rate 0.23% among 320,000. AID 485298; also: nearly all actives have a fitted effect of over 45% in size
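Growth-rescue viability read-out: after 48 h at the non-permissive 37C in glycerol/ethanol YPEG, yeast mitochondrial fusion mutants are measured by CellTiterGlo luminescence; compounds (23 nl pinned per well) restoring growth score as division inhibitors or fusion activators.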
Nrf2 ARE act = Nrf2 pathway activation. Potency, µM (highest dose often 46.1 µM), usual class: activators. AREc32 ARE-luciferase reporter (MCF7-derived line), luminescence, 24 h. hit rate 0.31% among 410,000; also: nearly all actives have a fitted effect of over 65% in size
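Steps: seed AREc32_Fluc cells (1000/well, 5% FBS OPTI-MEM); incubate overnight at 37 deg C; add 23 nL compound; incubate 24 hr; add Steady-Glo; hold 30 min RT; read luminescence.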
Each line names hits and unclear results; the compound was inactive in the other large screens. The list is not random: actives were taken first. Their share in the collection is about 2.3%. Unless noted, calls follow the shape of the dose curve; as a rule, active = well fitted curve in the direction sought with a large enough effect; inconclusive = small, poorly fitted or top-dose-only effect, or another doubt; inactive = no such curve, though single readings can be large; an effect the other way counts as inactive or inconclusive.

CSc1ccc(S(=O)(=O)Nc2ccc3c4c(cccc24)CC3)cc1	A549 viability inconclusive, Nrf2 block 18µM
O=S(=O)(Nc1ccc2c3c(cccc13)CC2)c1ccc(F)cc1	none (no result: Nrf2 block)
CC(OC(=O)c1ccc(S(=O)(=O)N(C)C)cc1)C(=O)Nc1ccc(Cl)cn1 (stereo not drawn)	none
COc1nc(NCc2cccnc2)nc(NC2CCCCC2)n1	Mito fusion act 13µM
COc1nc(NCc2cccnc2)nc(OC)n1	none
COc1ccc(C(=O)n2cc(C(C)=O)c3ccccc32)cc1	none
COc1ccccc1CNC(=O)c1cnc2c(-c3ccccc3)c(C)nn2c1C	none (no result: Mito fusion act)
COc1cc(CNC(=O)c2cnc3c(-c4cccc(C)c4)c(C)nn3c2C)cc(OC)c1OC	Nrf2 block 21µM (no result: Mito fusion act)
Cc1ccc(NC(=O)c2cc(S(=O)(=O)N(C)C)ccc2N2CCCC2)cc1S(=O)(=O)N(C)C	GRP78 ERSR act 32µM (no result: miR-21 reporter)
O=C(CNc1cccc(S(=O)(=O)N2CCCC2)c1)Nc1ccc(F)c(F)c1	Nrf2 block 26µM (no result: miR-21 reporter)
CCN(CC)S(=O)(=O)c1cccc(NC(=O)CNc2cccc(S(=O)(=O)N3CCCC3)c2)c1	A549 viability inconclusive, Nrf2 block 26µM
CCN(CC)S(=O)(=O)c1ccc(C)c(NC(=O)CNc2cccc(S(=O)(=O)N3CCCC3)c2)c1	Nrf2 block inconclusive (no result: miR-21 reporter)
Cc1ccc(NC(=O)COc2ccc(-c3nnco3)cc2)cc1S(=O)(=O)N1CCOCC1	Nrf2 block 23µM
Cc1ccc(OCCC(=O)OCC(=O)Nc2ccc(C)c(S(=O)(=O)N3CCOCC3)c2)cc1	none (no result: miR-21 reporter, Mito fusion act)
Cc1nnsc1C(=O)Oc1ccc(C#N)cc1	none (no result: Mito fusion act)
COCCn1c(-c2ccccc2)cnc1N	none
CC(=O)Nc1ncc(Cc2cc(Cl)ccc2Cl)s1	Mito fusion act inconclusive
Cc1ccc(NCC(=O)Nc2cccc(S(=O)(=O)N(C)C)c2)cc1S(=O)(=O)N1CCCCCC1	A549 viability inconclusive, Nrf2 block 8.2µM (no result: miR-21 reporter)
O=C(Nc1cccc(C(F)(F)F)c1)Nc1ccc2snnc2c1	A549 viability inconclusive, Nrf2 block 21µM, miR-21 reporter inconclusive (no result: Mito fusion act)
Cc1ccc(NC(=O)CNc2cccc(Br)c2)cc1S(=O)(=O)N1CCOCC1	A549 viability inconclusive, Nrf2 block 21µM (no result: miR-21 reporter, Mito fusion act)
O=C(Nc1cccc(C(F)(F)F)c1)c1ccc2snnc2c1	none (no result: Mito fusion act)
CCN(CC)S(=O)(=O)c1cccc(NC(=O)Nc2cccc(C(F)(F)F)c2)c1	A549 viability inconclusive, Nrf2 block 2.6µM, miR-21 reporter inconclusive
Cc1ccc(NCC(=O)Nc2ccc(F)c(Cl)c2)cc1S(=O)(=O)N1CCOCC1	none (no result: A549 viability, Nrf2 block, miR-21 reporter, Mito fusion act)
CCN(CC)S(=O)(=O)c1cccc(NC(=O)CC2CCCC2)c1	none
COc1cc(-n2c(=O)c3ccccc3n(Cc3cccc(C)c3)c2=O)cc(OC)c1OC	none
CCC(=O)N1CCc2cc(S(=O)(=O)CCC(=O)NCc3ccc(F)cc3)ccc21	none (no result: Mito fusion act)
Cc1nc(-c2ccc(F)cc2)c(CC(=O)Nc2ccc(C)c(S(=O)(=O)N3CCOCC3)c2)s1	Nrf2 block 18µM
O=C(O)CCSc1nc2ccccc2s1	Nrf2 block 13µM, miR-21 reporter inconclusive
CCOC(=O)NC(=O)COC(=O)CCCSc1nc2ccccc2s1	Nrf2 block 18µM
NC(=O)NC(=O)COC(=O)CCCSc1nc2ccccc2s1	Nrf2 block inconclusive
CCCN1CCN(CCCNC(=S)Nc2ccc3nc(N4CCN(CC)CC4)cc(C)c3c2)CC1	A549 viability inconclusive
Cc1cc(N2CCCC2)nc2ccc(NC(=S)NCCCN3CCC(C)CC3)cc12	A549 viability 9.2µM
Cn1c(=O)c(C(=O)CSc2nnc(Nc3ccccc3)s2)c(N)n(Cc2ccccc2)c1=O	none
Cc1ccccc1N=C1SC(CC(=O)Nc2ccc3ccccc3c2)C(=O)N1Cc1ccccn1 (stereo not drawn)	Nrf2 block inconclusive, miR-21 reporter inconclusive
O=C(CC1SC(=Nc2cccc3ccccc23)N(Cc2ccccn2)C1=O)Nc1ccccc1Br (stereo not drawn)	Nrf2 block 5.2µM
CCOc1ccc(N(CC)S(=O)(=O)N2CCCC(C(=O)NCCc3ccc(OC)cc3)C2)cc1 (stereo not drawn)	Nrf2 block inconclusive (no result: Mito fusion act)
